“And” between values parts separate entries of the source, which are not always exact repeats. Equal entries are not always repeated.
Legend:
[1] = tested on: HSV-2 (Strain-A234) clinical isolate; conditions: selectivity index, Vero CC50 / HSV-2 EC50
[2] = tested on: HSV-2 (Strain-A234) clinical isolate; assay: microbe, parasite or virus in culture; conditions: Human alphaherpesvirus 2, Vero, 48 h

COc1cc(C(=O)O)c2c(c1C)OC(=O)c1c(C)cc(O)c(C=O)c1O2 [PA, Psoromic acid]
SI (CC50/EC50) [1]: 114.8 and >114.8 | EC50 [2]: 2700 ± 430 nM

From paper PMC6720901, “Psoromic Acid, a Lichen-Derived Molecule, Inhibits the Replication of HSV-1 and HSV-2, and Inactivates HSV-1 DNA Polymerase: Shedding Light on Antiherpetic Properties” (Molecules, 2019)
